Results published in patent US20260384438A1, “PYRROLOPYRIMIDINE CARBOXAMIDES” (published 2026).

Protein sequences, listed by entry. Tags and fused reporters are not part of them. Lines headed by an entry give the natural chain unless they say otherwise; changes in a name come on top. Residues count along the entry.
UniProt O00141, whole entry: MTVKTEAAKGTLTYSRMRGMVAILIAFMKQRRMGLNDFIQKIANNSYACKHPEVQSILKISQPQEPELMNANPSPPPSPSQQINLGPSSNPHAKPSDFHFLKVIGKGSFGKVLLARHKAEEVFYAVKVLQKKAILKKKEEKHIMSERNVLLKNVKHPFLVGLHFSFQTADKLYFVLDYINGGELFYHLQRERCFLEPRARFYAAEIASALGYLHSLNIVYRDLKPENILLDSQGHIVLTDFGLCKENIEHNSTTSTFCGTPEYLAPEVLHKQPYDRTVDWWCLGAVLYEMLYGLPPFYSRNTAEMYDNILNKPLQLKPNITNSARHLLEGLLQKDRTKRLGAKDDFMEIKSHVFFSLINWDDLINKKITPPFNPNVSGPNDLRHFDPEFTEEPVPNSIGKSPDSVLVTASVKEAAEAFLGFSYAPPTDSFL
UniProt P04049, whole entry Y340D/Y341D: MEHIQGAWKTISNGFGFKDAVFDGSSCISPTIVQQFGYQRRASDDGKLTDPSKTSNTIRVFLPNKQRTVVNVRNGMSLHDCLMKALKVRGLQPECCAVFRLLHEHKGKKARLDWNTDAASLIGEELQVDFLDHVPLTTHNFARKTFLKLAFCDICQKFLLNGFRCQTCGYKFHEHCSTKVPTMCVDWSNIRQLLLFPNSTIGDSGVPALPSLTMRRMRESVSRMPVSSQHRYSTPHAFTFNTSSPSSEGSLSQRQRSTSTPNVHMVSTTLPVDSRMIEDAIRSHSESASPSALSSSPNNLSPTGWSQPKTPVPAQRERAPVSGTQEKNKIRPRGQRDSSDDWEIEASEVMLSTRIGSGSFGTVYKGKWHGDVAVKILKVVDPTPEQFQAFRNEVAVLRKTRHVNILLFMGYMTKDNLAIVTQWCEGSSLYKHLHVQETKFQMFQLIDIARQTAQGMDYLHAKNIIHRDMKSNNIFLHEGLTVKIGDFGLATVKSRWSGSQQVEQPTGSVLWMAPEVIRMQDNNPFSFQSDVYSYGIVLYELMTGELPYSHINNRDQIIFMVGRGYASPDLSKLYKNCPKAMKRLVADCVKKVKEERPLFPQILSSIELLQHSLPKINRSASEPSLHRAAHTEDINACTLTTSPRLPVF
UniProt O94806, whole entry: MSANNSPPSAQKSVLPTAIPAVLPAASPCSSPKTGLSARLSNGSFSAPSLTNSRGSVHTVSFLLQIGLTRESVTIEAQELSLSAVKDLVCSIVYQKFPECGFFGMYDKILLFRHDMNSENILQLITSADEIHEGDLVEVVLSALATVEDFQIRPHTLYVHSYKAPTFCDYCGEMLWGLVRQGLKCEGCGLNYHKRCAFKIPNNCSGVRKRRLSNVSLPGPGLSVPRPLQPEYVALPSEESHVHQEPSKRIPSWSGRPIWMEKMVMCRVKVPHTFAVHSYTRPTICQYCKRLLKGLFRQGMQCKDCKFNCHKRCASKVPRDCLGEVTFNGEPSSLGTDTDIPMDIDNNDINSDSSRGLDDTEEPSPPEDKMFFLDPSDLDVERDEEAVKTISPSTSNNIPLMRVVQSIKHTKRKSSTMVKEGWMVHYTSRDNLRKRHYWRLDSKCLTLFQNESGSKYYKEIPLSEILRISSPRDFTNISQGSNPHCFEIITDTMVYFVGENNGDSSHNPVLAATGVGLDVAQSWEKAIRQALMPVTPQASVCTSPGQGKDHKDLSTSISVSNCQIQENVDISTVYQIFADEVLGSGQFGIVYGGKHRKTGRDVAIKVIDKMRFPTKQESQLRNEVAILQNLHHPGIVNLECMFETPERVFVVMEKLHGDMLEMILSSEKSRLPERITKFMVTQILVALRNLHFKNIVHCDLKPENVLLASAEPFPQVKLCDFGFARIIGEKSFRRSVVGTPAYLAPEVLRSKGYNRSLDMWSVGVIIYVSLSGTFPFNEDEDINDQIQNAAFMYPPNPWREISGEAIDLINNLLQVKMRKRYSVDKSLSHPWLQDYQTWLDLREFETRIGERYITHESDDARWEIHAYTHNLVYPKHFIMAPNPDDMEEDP
UniProt Q7KZI7, whole entry: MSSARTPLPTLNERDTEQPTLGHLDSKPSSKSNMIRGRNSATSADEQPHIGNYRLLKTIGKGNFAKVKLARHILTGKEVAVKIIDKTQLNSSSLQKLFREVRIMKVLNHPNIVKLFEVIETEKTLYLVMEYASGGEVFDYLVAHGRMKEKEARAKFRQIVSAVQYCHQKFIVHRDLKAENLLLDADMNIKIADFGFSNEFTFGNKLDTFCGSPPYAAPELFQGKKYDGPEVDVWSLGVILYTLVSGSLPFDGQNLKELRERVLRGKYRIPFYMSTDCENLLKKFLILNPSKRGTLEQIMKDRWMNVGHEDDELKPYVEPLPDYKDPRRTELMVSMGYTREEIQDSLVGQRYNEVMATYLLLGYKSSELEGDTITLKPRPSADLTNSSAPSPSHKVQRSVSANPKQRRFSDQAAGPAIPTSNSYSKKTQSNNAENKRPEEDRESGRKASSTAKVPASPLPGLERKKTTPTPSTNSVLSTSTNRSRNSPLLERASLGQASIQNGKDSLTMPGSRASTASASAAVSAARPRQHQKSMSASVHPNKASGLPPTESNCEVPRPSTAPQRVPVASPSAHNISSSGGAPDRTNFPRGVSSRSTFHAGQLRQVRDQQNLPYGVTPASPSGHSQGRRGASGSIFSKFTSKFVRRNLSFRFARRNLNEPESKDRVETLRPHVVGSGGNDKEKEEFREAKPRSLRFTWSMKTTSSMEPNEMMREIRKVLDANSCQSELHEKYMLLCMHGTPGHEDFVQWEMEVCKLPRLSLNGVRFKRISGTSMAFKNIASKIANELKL
UniProt Q8NE63, whole entry: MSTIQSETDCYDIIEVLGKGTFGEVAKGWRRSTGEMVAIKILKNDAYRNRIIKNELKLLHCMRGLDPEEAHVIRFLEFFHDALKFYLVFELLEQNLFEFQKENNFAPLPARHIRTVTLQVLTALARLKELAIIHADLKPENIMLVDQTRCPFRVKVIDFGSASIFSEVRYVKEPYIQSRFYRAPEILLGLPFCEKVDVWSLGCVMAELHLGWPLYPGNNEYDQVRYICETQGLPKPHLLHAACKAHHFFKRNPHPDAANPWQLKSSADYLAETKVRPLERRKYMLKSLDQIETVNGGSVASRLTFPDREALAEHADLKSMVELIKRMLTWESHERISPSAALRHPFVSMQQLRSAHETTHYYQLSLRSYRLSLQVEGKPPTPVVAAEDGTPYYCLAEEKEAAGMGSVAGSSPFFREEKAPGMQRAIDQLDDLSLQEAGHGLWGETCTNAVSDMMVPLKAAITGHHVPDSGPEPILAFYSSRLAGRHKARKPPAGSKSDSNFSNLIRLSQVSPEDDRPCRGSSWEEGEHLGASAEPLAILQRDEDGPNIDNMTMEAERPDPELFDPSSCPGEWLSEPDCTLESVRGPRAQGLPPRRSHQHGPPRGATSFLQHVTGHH
UniProt Q9Y5S2, whole entry: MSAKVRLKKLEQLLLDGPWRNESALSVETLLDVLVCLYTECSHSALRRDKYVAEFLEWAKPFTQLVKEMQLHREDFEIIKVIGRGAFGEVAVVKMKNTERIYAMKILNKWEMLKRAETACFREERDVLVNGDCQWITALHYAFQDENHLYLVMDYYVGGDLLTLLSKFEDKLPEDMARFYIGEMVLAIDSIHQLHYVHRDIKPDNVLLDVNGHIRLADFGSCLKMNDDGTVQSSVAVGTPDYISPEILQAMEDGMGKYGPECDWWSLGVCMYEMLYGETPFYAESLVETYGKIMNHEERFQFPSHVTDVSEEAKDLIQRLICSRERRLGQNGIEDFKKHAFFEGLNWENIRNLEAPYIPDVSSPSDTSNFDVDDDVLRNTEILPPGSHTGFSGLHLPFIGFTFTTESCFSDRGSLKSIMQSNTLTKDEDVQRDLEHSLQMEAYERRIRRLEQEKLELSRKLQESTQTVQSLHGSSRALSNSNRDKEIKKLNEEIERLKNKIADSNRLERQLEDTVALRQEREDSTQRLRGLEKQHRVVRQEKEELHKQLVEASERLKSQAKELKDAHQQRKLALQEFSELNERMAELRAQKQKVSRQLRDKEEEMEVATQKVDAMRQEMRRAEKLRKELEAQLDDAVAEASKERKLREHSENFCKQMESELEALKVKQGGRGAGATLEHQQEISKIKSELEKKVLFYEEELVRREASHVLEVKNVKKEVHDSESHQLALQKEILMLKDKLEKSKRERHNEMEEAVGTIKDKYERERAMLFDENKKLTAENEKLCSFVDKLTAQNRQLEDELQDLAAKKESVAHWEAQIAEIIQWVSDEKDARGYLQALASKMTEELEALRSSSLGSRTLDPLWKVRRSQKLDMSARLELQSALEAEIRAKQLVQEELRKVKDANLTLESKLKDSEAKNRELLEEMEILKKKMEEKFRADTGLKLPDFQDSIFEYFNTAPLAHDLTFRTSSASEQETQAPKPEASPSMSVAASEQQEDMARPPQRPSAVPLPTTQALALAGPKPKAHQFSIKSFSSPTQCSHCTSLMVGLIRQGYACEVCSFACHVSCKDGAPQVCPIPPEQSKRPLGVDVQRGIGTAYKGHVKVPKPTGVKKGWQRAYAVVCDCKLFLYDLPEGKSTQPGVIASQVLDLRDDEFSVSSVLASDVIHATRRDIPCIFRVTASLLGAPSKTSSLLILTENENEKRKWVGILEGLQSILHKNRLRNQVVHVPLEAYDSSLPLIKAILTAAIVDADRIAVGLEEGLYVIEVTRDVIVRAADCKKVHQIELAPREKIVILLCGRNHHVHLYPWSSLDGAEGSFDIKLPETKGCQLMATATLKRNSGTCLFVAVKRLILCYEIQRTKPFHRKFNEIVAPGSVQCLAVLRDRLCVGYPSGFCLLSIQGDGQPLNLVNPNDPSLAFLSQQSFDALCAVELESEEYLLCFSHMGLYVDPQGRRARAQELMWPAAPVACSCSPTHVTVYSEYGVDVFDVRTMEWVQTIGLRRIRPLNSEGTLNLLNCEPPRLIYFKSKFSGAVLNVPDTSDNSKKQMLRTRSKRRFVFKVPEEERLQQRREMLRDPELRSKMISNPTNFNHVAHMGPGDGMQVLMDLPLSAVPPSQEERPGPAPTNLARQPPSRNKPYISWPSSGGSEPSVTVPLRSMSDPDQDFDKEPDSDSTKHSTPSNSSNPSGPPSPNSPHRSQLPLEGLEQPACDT
UniProt P11229, whole entry: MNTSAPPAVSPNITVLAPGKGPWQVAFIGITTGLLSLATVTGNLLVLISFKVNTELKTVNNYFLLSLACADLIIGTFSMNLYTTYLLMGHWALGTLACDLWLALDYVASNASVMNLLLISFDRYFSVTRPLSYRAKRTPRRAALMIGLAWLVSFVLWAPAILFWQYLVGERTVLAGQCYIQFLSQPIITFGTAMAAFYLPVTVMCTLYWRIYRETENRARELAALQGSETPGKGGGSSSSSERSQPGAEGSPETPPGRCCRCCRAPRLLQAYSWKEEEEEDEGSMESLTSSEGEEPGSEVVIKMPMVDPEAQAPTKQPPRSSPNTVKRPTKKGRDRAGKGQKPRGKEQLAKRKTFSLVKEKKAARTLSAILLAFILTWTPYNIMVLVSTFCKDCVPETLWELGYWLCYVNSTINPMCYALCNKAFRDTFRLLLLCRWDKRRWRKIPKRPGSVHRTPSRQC
UniProt P37288, whole entry: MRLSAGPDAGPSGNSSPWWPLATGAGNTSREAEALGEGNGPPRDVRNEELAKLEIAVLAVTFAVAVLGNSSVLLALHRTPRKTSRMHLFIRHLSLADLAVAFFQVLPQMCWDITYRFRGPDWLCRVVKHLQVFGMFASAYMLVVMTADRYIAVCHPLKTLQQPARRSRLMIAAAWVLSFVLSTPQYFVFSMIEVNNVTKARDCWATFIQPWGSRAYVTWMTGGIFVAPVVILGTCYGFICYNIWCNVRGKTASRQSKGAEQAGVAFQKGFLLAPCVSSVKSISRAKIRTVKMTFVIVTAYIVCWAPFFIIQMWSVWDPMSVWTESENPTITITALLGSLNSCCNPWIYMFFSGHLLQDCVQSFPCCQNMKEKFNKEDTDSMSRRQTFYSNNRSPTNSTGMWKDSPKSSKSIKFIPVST
UniProt P28335, 33-458 limits assumed: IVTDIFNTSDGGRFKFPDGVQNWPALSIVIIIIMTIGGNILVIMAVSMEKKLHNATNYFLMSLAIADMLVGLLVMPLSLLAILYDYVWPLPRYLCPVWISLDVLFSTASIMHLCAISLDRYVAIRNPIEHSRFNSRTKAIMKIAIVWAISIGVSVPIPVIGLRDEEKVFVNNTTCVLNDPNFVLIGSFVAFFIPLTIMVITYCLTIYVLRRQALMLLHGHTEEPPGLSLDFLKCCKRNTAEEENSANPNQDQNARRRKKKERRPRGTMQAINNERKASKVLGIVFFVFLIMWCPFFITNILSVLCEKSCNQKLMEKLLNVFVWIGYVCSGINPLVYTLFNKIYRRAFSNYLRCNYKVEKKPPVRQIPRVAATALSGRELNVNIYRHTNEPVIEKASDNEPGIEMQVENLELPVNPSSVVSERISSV

Key:
PIM1 = PIM1 (Homo sapiens, UniProt P11309); assay: Kinase profiling, Z-Lyte; conditions: 1 μM, KmATP
PASK = PASK (Homo sapiens, UniProt Q96RG2); assay: Kinase profiling, Z-Lyte; conditions: 1 μM, KmATP
SGK (SGK1) = SGK (SGK1) (Homo sapiens, UniProt O00141); assay: Kinase profiling, Z-Lyte; conditions: 1 μM, KmATP
STK22D (TSSK1) = STK22D (TSSK1) (Homo sapiens, UniProt Q9BXA7); assay: Kinase profiling, Z-Lyte; conditions: 1 μM, KmATP
RAF1 Y340D Y341D = RAF1 Y340D Y341D (Homo sapiens, UniProt P04049, Y340D/Y341D); assay: Kinase profiling, Z-Lyte; conditions: 10-point CR, ATP 100.000 μM
MAPK11 (p38 beta) = MAPK11 (p38 beta) (Homo sapiens, UniProt Q15759); assay: Kinase profiling, Z-Lyte; conditions: 1 μM, KmATP
PRKCN (PKD3) = PRKCN (PKD3) (Homo sapiens, UniProt O94806); assay: Kinase profiling, Z-Lyte; conditions: 1 μM, KmATP
DNA-PK = DNA-PK (Homo sapiens, UniProt P78527); assay: Kinase profiling, Z-Lyte; conditions: 1 μM, KmATP
AMPK A1/B1/G1 = AMPK A1/B1/G1 (Homo sapiens, UniProt Q13131); assay: Kinase profiling, Z-Lyte; conditions: 1 μM, KmATP
TXK = TXK (Homo sapiens, UniProt P42681); assay: Kinase profiling, Z-Lyte; conditions: 1 μM, KmATP
PHKG1 = PHKG1 (Homo sapiens, UniProt Q16816); assay: Kinase profiling, Z-Lyte; conditions: 1 μM, KmATP
MARK2 = MARK2 (Homo sapiens, UniProt Q7KZI7); assay: Kinase profiling, Z-Lyte; conditions: 1 μM, KmATP
HIPK4 = HIPK4 (Homo sapiens, UniProt Q8NE63); assay: Kinase profiling, Z-Lyte; conditions: 1 μM, KmATP
MARK3 = MARK3 (Homo sapiens, UniProt P27448); assay: Kinase profiling, Z-Lyte; conditions: 1 μM, KmATP
RPS6KA2 (RSK3) = RPS6KA2 (RSK3) (Homo sapiens, UniProt Q15349); assay: Kinase profiling, Z-Lyte; conditions: 1 μM, KmATP
HIPK3 (YAK1) = HIPK3 (YAK1) (Homo sapiens, UniProt Q9H422); assay: Kinase profiling, Z-Lyte; conditions: 1 μM, KmATP
CDC42 BPB (MRCKB) = CDC42 BPB (MRCKB) (Homo sapiens, UniProt Q9Y5S2); assay: Kinase profiling, Z-Lyte; conditions: 1 μM, KmATP
EPHB3 = EPHB3 (Homo sapiens, UniProt P54753); assay: Kinase profiling, Z-Lyte; conditions: 1 μM, KmATP
PRKG1 = PRKG1 (Homo sapiens, UniProt Q13976); assay: Kinase profiling, Z-Lyte; conditions: 1 μM, KmATP
CSNK1G2 (CK1gamma2) = CSNK1G2 (CK1gamma2) (Homo sapiens, UniProt P78368); assay: Kinase profiling, Z-Lyte; conditions: 1 μM, KmATP
[1] = In vivo pharmacokinetics in male CD-1 mice (I.V. or P.O.)
[2] = In vivo pharmacokinetics comparing formulations in SCID mouse, 300 mg/kg P.O.; conditions: female SCID mice, P.O. 300 mg/kg
CYP2C19 = CYP2C19 (Homo sapiens, UniProt P33261); assay: CYP inhibition, CYP2C19; conditions: read-out: CYP2C19 inhibition IC50; HLM, S-mepheytoin 35 μM
[3] = In vitro biotransformation in rat hepatocytes; conditions: 5 μM, 180 min
GABAA receptor, BNZ site = assay: Secondary pharmacology, radioligand binding
5-HT4 receptor = 5-HT4 receptor (Homo sapiens, UniProt Q13639); assay: Secondary pharmacology, radioligand binding
M1 muscarinic receptor = M1 muscarinic receptor (Homo sapiens, UniProt P11229); assay: Secondary pharmacology, radioligand binding
V1A vasopressin receptor = V1A vasopressin receptor (Homo sapiens, UniProt P37288); assay: Secondary pharmacology, radioligand binding
5-HT2C receptor = 5-HT2C receptor (Homo sapiens, UniProt P28335); assay: Secondary pharmacology, radioligand binding
Sigma σ1 Receptor = Sigma σ1 Receptor (Homo sapiens, UniProt Q99720); assay: Secondary pharmacology, radioligand binding
δ opioid Receptor = δ opioid Receptor (Homo sapiens, UniProt P41143); assay: Secondary pharmacology, radioligand binding
α1 nicotinic receptor = α1 nicotinic receptor (Homo sapiens, UniProt P02708+P07510+Q07001); assay: Secondary pharmacology, radioligand binding
H1 histamine receptor = H1 histamine receptor (Homo sapiens, UniProt P35367); assay: Secondary pharmacology, radioligand binding
[4] = test system: Glycine receptor, Strychnine-Sensitive; assay: Secondary pharmacology, radioligand binding

Cc1nc(C(F)(F)F)c2c(C(N)=O)c(N)n(-c3c(C)ccc(O)c3C)c2n1 (single isomer, unassigned)
MEAN INHIBITION (PIM1): −1.231%
MEAN INHIBITION (PASK): 5.814%
MEAN INHIBITION (SGK (SGK1)): 1.583%
MEAN INHIBITION (STK22D (TSSK1)): 8.038%
IC50 (RAF1 Y340D Y341D): 0.083 µM
MEAN INHIBITION (MAPK11 (p38 beta)): 5.090%
MEAN INHIBITION (PRKCN (PKD3)): 8.236%
MEAN INHIBITION (DNA-PK): 2.292%
MEAN INHIBITION (AMPK A1/B1/G1): 6.558%
MEAN INHIBITION (TXK): 9.164%
MEAN INHIBITION (PHKG1): 3.453%
MEAN INHIBITION (MARK2): 4.784%
MEAN INHIBITION (HIPK4): 1.188%
MEAN INHIBITION (MARK3): 7.414%
MEAN INHIBITION (RPS6KA2 (RSK3)): 31.595%
MEAN INHIBITION (HIPK3 (YAK1)): 0.970%
MEAN INHIBITION (CDC42 BPB (MRCKB)): −1.544%
MEAN INHIBITION (EPHB3): 71.690%
MEAN INHIBITION (PRKG1): 2.575%
MEAN INHIBITION (CSNK1G2 (CK1gamma2)): 1.270%
AUC ([1]; I.V. 0.5 mg/kg): 1.34 µM·h
CL ([1]; I.V. 0.5 mg/kg): 16.7 mL/min/kg
Cmax ([1]; I.V. 0.5 mg/kg): 1.4 µM
Tmax ([1]; I.V. 0.5 mg/kg): 1.8 min
VSS ([1]; I.V. 0.5 mg/kg): 7.87 L/kg
t1/2 ([1]; I.V. 0.5 mg/kg): 618 min
AUC ([1]; P.O. 1.0 mg/kg): 1.84 µM·h
Cmax ([1]; P.O. 1.0 mg/kg): 0.3 µM
Tmax ([1]; P.O. 1.0 mg/kg): 30 min
t1/2 ([1]; P.O. 1.0 mg/kg): 322 min
AUC ([2]; DMSO/CAPTISOL/WFI): 141.4 µM·h
Cmax ([2]; DMSO/CAPTISOL/WFI): 33.9 µM
Tmax ([2]; DMSO/CAPTISOL/WFI): 30 min
AUC ([2]; HPMC/TWEEN 80): 197.8 µM·h
Cmax ([2]; HPMC/TWEEN 80): 45.7 µM
Tmax ([2]; HPMC/TWEEN 80): 30 min
IC50 (CYP2C19): > 30 µM
Glucuronidation [3]: M (Major (>10%))
Pharmacological mode of action (GABAA receptor, BNZ site): Inactive
Ki (GABAA receptor, BNZ site; read-out: Binding Ki): > 100 µM
Pharmacological mode of action (5-HT4 receptor): Inactive
Ki (5-HT4 receptor; read-out: Binding Ki): > 100 µM
Pharmacological mode of action (M1 muscarinic receptor): Inactive
Ki (M1 muscarinic receptor; read-out: Binding Ki): > 100 µM
Pharmacological mode of action (V1A vasopressin receptor): Inactive
Ki (V1A vasopressin receptor; read-out: Binding Ki): > 100 µM
Pharmacological mode of action (5-HT2C receptor): Inactive
Ki (5-HT2C receptor; read-out: Binding Ki): > 100 µM
Pharmacological mode of action (Sigma σ1 Receptor): Inactive
Ki (Sigma σ1 Receptor; read-out: Binding Ki): > 100 µM
Pharmacological mode of action (δ opioid Receptor): Inactive
Ki (δ opioid Receptor; read-out: Binding Ki): > 100 µM
Pharmacological mode of action (α1 nicotinic receptor): Inactive
Ki (α1 nicotinic receptor; read-out: Binding Ki): > 100 µM
Pharmacological mode of action (H1 histamine receptor): Inactive
Ki (H1 histamine receptor; read-out: Binding Ki): > 100 µM
Pharmacological mode of action [4]: Inactive
Ki ([4]; read-out: Binding Ki): > 100 µM
